Biological target: Histamine H1 receptor (Homo sapiens, UniProt P35367)
Experiment: biochemical
Assay type: cell-based, HEK-293T

Protein sequences, listed by entry. Tags and fused reporters are not part of them.
UniProt P35367, whole entry: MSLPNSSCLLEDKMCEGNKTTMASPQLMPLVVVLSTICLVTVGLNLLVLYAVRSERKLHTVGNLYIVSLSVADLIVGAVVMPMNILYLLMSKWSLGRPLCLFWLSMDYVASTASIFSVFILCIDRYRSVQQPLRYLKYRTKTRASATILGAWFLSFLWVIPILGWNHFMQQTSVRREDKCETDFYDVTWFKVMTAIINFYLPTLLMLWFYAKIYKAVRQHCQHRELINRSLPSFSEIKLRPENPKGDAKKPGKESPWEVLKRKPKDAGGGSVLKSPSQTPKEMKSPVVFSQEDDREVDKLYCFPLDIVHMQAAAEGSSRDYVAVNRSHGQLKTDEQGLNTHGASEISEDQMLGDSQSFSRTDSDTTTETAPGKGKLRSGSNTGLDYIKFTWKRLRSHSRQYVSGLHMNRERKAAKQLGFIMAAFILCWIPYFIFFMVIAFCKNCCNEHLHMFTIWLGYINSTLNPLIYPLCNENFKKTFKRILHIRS

Ki: 2 nM
Compound: CN1CCC(Oc2ccccc2Cc2ccccc2)CC1.O=C(O)/C=C/C(=O)O

Source: ChEMBL document CHEMBL3865843, “Identification of Ligand Binding Hot Spots of the Histamine H1 Receptor following Structure-Based Fragment Optimization” (J Med Chem, 2016)
